One assay has as its target hJAK2 (Homo sapiens (Human), UniProt O60674). Description: hJAK2 LANCE TR-FRET enzymatic assay. Format: biochemical. The following applies: read-out: JAK2 IC50. On the technique in general: TR-FRET usually uses a lanthanide donor and a delayed reading to cut background.
The target of another assay is IKKε (Homo sapiens (Human), UniProt Q14164). The assay is described as follows: IKKε TR-FRET enzymatic assay. Type of assay: biochemical. As to conditions: read-out: IKKe IC50.
Another assay deals with TBK1 (Homo sapiens (Human), UniProt Q9UHD2). The assay is described as follows: TBK1 TR-FRET enzymatic assay.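 Note: phosphorylation of a biotinylated Ser/Thr peptide by purified full-length recombinant TBK1, read by TR-FRET after 240 min at 25 °C, IC50 is the geometric mean of at least four runs.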
[1] abbreviates: TR-FRET, 2×Km ATP, geometric mean of minimum four determinations.

Chains of the proteins cited; added tags and fusions are not shown. Lines headed by an entry give the natural chain unless they say otherwise; changes in a name come on top.
UniProt O60674: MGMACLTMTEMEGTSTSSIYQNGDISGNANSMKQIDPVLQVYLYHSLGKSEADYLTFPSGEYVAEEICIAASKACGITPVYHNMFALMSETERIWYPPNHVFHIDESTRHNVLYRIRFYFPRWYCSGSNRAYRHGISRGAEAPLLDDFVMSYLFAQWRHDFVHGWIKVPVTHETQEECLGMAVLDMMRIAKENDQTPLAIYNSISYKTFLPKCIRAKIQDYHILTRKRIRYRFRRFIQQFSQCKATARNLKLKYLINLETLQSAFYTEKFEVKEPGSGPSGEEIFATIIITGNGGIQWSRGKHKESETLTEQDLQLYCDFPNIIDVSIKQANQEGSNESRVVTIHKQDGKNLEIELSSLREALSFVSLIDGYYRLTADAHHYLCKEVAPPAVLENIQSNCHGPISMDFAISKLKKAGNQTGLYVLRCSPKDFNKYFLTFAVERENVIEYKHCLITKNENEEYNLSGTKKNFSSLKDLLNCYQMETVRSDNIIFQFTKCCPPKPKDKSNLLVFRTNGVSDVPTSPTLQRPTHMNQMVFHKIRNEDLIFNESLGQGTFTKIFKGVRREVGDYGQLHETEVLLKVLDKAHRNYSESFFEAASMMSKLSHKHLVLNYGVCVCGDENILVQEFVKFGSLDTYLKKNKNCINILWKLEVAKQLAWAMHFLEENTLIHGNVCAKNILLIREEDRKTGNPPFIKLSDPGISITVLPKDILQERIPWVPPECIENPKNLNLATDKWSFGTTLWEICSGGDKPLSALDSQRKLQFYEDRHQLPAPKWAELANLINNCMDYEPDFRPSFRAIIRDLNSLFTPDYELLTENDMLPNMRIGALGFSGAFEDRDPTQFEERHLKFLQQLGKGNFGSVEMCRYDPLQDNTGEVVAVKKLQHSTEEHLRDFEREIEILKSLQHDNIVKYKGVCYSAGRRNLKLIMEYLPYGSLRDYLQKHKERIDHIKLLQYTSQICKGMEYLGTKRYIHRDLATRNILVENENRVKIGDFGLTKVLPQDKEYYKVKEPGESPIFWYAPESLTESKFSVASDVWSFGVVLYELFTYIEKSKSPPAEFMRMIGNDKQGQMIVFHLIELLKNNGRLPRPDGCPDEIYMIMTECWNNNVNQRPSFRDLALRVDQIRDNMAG
UniProt Q14164: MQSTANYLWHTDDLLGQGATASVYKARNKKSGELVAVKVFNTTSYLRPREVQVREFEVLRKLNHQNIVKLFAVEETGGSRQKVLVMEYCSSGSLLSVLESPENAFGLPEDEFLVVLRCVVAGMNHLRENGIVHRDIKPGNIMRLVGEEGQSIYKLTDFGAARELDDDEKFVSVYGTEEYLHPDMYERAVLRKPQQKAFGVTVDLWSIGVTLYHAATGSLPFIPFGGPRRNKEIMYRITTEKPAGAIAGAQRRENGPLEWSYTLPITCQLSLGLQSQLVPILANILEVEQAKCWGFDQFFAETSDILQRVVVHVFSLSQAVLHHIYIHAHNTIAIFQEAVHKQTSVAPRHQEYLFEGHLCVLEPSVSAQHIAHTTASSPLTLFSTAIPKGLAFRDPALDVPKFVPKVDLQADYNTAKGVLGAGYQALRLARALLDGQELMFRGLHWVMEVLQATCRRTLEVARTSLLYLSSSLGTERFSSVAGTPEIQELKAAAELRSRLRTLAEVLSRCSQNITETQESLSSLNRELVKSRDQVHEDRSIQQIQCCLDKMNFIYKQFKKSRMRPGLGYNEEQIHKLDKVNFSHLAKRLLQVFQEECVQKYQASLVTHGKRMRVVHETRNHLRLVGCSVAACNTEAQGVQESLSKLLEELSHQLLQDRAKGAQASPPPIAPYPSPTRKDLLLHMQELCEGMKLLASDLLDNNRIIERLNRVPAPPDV
UniProt Q9UHD2: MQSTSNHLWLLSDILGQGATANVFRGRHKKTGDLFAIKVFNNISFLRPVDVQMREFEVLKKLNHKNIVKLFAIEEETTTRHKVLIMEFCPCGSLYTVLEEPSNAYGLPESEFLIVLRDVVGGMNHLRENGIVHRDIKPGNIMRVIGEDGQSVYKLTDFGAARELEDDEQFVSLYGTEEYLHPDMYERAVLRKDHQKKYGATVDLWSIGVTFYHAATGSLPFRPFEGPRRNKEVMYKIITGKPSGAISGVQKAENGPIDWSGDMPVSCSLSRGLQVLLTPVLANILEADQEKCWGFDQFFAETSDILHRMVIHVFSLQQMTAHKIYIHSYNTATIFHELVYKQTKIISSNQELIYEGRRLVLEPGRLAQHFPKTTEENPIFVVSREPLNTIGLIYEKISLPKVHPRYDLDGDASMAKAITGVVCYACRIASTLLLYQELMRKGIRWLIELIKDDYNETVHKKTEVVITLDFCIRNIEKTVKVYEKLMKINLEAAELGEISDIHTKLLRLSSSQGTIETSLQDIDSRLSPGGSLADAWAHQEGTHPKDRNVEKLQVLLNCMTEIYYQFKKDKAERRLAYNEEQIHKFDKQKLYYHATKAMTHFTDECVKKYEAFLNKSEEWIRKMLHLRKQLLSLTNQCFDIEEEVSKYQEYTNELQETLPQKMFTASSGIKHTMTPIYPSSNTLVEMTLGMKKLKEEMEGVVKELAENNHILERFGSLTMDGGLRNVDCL

Where two headings read alike, the source gives them in different places. Where only a bound is given, the exact number is not on record here.

Regarding `C[C@H]1C[C@H](Oc2ccc(-c3ncnc(Nc4ccc(N5CCN(C6COC6)CC5)cc4)n3)cc2C#N)[C@H](F)CN1C(=O)[C@H]1CCC(=O)N1` [Example 411, 2-(((2S,4S,5R)-5-fluoro-2-methyl-1-((R)-5-oxopyrrolidine-2-carbonyl)piperidin-4-yl)oxy)-5-(4-((4-(4-(oxetan-3-yl)piperazin-1-yl)phenyl)amino)-1,3,5-triazin-2-yl)benzonitrile], on hJAK2, the half-inhibitory concentration (IC50) – broadly, the concentration needed to halve the response being measured – was no less than 1000 nM.

With `C[C@H](O)C(=O)N1CC[C@H](Oc2ccc(-c3ncnc(Nc4ccc(C5CCN(C6COC6)CC5)cc4)n3)cc2C#N)[C@H](F)C1` [Example 311, 2-(((3R,4S)-3-fluoro-1-((S)-2-hydroxypropanoyl)piperidin-4-yl)oxy)-5-(4-((4-(1-(oxetan-3-yl)piperidin-4-yl)phenyl)amino)-1,3,5-triazin-2-yl)benzonitrile], the IC50 on hJAK2 was no less than 1000 nM.

As for `Cc1cc(Nc2ncnc(-c3ccc(O[C@H]4CCN(C(=O)[C@H](O)CO)C[C@H]4F)c(C#N)c3)n2)ccc1N1CCN(C2COC2)CC1` [Example 576, 2-(((3R,4S)-1-((R)-2,3-dihydroxypropanoyl)-3-fluoropiperidin-4-yl)oxy)-5-(4-((3-methyl-4-(4-(oxetan-3-yl)piperazin-1-yl)phenyl)amino)-1,3,5-triazin-2-yl)benzonitrile], the IC50 on IKKε (setting [1]) and on TBK1 was 2 nM in each case.

Consider `N#Cc1cc(-c2ncnc(Nc3cnn(C(F)F)c3)n2)ccc1O[C@H]1CCN(C(=O)CO)C[C@H]1F` [Example 454, 5-(4-((1-(difluoromethyl)-1H-pyrazol-4-yl)amino)-1,3,5-triazin-2-yl)-2-(((3R,4S)-3-fluoro-1-(2-hydroxyacetyl)piperidin-4-yl)oxy)benzonitrile], for which the IC50 on TBK1 worked out at 5 nM.

For the molecule `CN1CCN(c2ccc(Nc3ncnc(-c4ccc(OC5CCOCC5)c(C#N)c4)n3)cc2)CC1` [Example 12, 5-(4-((4-(4-methylpiperazin-1-yl)phenyl)amino)-1,3,5-triazin-2-yl)-2-((tetrahydro-2H-pyran-4-yl)oxy)benzonitrile], on TBK1, the IC50 came to 1 nM.

Molecule `Cc1cc(Nc2ncnc(-c3ccc(O[C@H]4CCN(C(=O)[C@@H](O)CO)C[C@H]4F)c(C#N)c3)n2)ccc1N1CCN(C2COC2)CC1` [Example 575, 2-(((3R,4S)-1-((S)-2,3-dihydroxypropanoyl)-3-fluoropiperidin-4-yl)oxy)-5-(4-((3-methyl-4-(4-(oxetan-3-yl)piperazin-1-yl)phenyl)amino)-1,3,5-triazin-2-yl)benzonitrile] returned an IC50 on TBK1 of 2 nM.

For `C[C@H]1CN(C2COC2)CCN1c1ccc(Nc2ncnc(-c3ccc(O[C@H]4CCN(C(=O)[C@@H]5CCC(=O)N5)C[C@H]4F)c(C#N)c3)n2)cc1` [Example 381, 2-(((3R,4S)-3-fluoro-1-((S)-5-oxopyrrolidine-2-carbonyl)piperidin-4-yl)oxy)-5-(4-((4-((S)-2-methyl-4-(oxetan-3-yl)piperazin-1-yl)phenyl)amino)-1,3,5-triazin-2-yl)benzonitrile], the IC50 on IKKε was no less than 1000 nM; on TBK1 it was 1000 nM.

For the molecule `Cc1n[nH]c(C)c1C(=O)N1CC[C@H](Oc2ccc(-c3ncnc(Nc4ccc(N5CCN(C6COC6)CC5)cc4)n3)cc2C#N)[C@H](F)C1` [Example 135, 2-(((3R,4S)-1-(3,5-dimethyl-1H-pyrazole-4-carbonyl)-3-fluoropiperidin-4-yl)oxy)-5-(4-((4-(4-(oxetan-3-yl)piperazin-1-yl)phenyl)amino)-1,3,5-triazin-2-yl)benzonitrile], the IC50 at IKKε and against TBK1 was 7 nM in each case.

As for `COC(=O)N1CC[C@@H](Oc2ccc(-c3ncnc(Nc4ccc(N5CCN(C6COC6)CC5)cc4)n3)cc2C#N)C1` [Example 2, (R)-methyl 3-(2-cyano-4-(4-((4-(4-(oxetan-3-yl)piperazin-1-yl)phenyl)amino)-1,3,5-triazin-2-yl)phenoxy)pyrrolidine-1-carboxylate], the IC50 at hJAK2 amounted to 660 nM.

The molecule `COc1cc(Nc2ncnc(-c3ccc(O[C@H]4CCN(C(=O)[C@H](O)CO)C[C@H]4F)c(C#N)c3)n2)ccc1N1CCN(C2COC2)CC1` [Example 579, 2-(((3R,4S)-1-((R)-2,3-dihydroxypropanoyl)-3-fluoropiperidin-4-yl)oxy)-5-(4-((3-methoxy-4-(4-(oxetan-3-yl)piperazin-1-yl)phenyl)amino)-1,3,5-triazin-2-yl)benzonitrile] registered an IC50 against TBK1 of 2 nM.

With `N#Cc1cc(-c2ncnc(Nc3ccc(N4CCN(C5COC5)CC4)cc3)n2)ccc1O[C@H]1CCN(C(=O)c2cnccn2)C[C@H]1F` [Example 336, 2-(((3R,4S)-3-fluoro-1-(pyrazine-2-carbonyl)piperidin-4-yl)oxy)-5-(4-((4-(4-(oxetan-3-yl)piperazin-1-yl)phenyl)amino)-1,3,5-triazin-2-yl)benzonitrile], half-maximal inhibition at TBK1 (IC50) was put at 2 nM.

As to `C[C@H]1C[C@H](Oc2ccc(-c3ncnc(Nc4ccc(N5CCN(C6COC6)CC5)cc4)n3)cc2C#N)[C@H](F)CN1C(=O)[C@@H]1CCC(=O)N1` [Example 416, 2-(((2S,4S,5R)-5-fluoro-2-methyl-1-((S)-5-oxopyrrolidine-2-carbonyl)piperidin-4-yl)oxy)-5-(4-((4-(4-(oxetan-3-yl)piperazin-1-yl)phenyl)amino)-1,3,5-triazin-2-yl)benzonitrile], at hJAK2, the IC50 is no less than 1000 nM.

As for `N#Cc1cc(-c2ncnc(Nc3ccc(N4CCN(C5COC5)CC4)cc3)n2)ccc1OC1CCN(C(=O)c2ncc[nH]2)CC1(F)F` (stereo not drawn) [Example 163, 2-((3,3-difluoro-1-(1H-imidazole-2-carbonyl)piperidin-4-yl)oxy)-5-(4-((4-(4-(oxetan-3-yl)piperazin-1-yl)phenyl)amino)-1,3,5-triazin-2-yl)benzonitrile], the IC50 on IKKε and at TBK1 was 6 nM each time.

Turning to `COc1cc(Nc2ncnc(-c3ccc(O[C@H]4CCN(C(=O)[C@@H](O)CO)C[C@H]4F)c(C#N)c3)n2)ccc1N1CCN(C2COC2)CC1` [Example 578, 2-(((3R,4S)-1-((S)-2,3-dihydroxypropanoyl)-3-fluoropiperidin-4-yl)oxy)-5-(4-((3-methoxy-4-(4-(oxetan-3-yl)piperazin-1-yl)phenyl)amino)-1,3,5-triazin-2-yl)benzonitrile], the IC50 on TBK1 is 2 nM.

`N#Cc1cc(-c2ncnc(Nc3ccc(N4CCO[C@@H](CO)C4)cc3)n2)ccc1OC1CCOCC1` [Example 107, (R)-5-(4-((4-(2-(hydroxymethyl)morpholino)phenyl)amino)-1,3,5-triazin-2-yl)-2-((tetrahydro-2H-pyran-4-yl)oxy)benzonitrile]: the IC50 at hJAK2 came to 258 nM; against TBK1 it was 2 nM.

On to `N#Cc1cc(-c2ncnc(Nc3ccc(N4CCOCC4)cc3)n2)ccc1NC(=O)[C@@H]1CCCN1` [Example 37, (S)—N-(2-cyano-4-(4-((4-morpholinophenyl)amino)-1,3,5-triazin-2-yl)phenyl)pyrrolidine-2-carboxamide], for which the IC50 on hJAK2 came out at 326 nM.

Regarding `C[C@H](O)C(=O)N1CC[C@H](Oc2ccc(-c3ncnc(Nc4ccc(N5CCN(C6COC6)CC5)cc4)n3)cc2C#N)[C@H](F)C1` [Example 238, 2-(((3R,4S)-3-fluoro-1-((8)-2-hydroxypropanoyl)piperidin-4-yl)oxy)-5-(4-((4-(4-(oxetan-3-yl)piperazin-1-yl)phenyl)amino)-1,3,5-triazin-2-yl)benzonitrile], at TBK1, the IC50 turned out to be 2 nM.

For `C[C@H](O)C(=O)N1CC[C@H](Oc2ccc(-c3ncnc(Nc4ccc([C@@H]5C(=O)N(C)CCN5C)cc4)n3)cc2C#N)[C@H](F)C1` [Example 518, 5-(4-((4-((R)-1,4-dimethyl-3-oxopiperazin-2-yl)phenyl)amino)-1,3,5-triazin-2-yl)-2-(((3R,4S)-3-fluoro-1-((S)-2-hydroxypropanoyl)piperidin-4-yl)oxy)benzonitrile], the half-inhibitory concentration (IC50) at IKKε (setting [1]) and on TBK1 was 3 nM in each case.

Molecule `N#Cc1cc(-c2ncnc(Nc3ccc(N4CCN(C5COC5)CC4)cc3)n2)ccc1O[C@H]1CCN(C(=O)c2cc(Cl)n[nH]2)C[C@H]1F` [Example 324, 2-(((3R,4S)-1-(3-chloro-1H-pyrazole-5-carbonyl)-3-fluoropiperidin-4-yl)oxy)-5-(4-((4-(4-(oxetan-3-yl)piperazin-1-yl)phenyl)amino)-1,3,5-triazin-2-yl)benzonitrile] had an IC50 against TBK1 of 4 nM.

For `N#Cc1cc(-c2ncnc(Nc3ccc(C4CCNCC4)cc3)n2)ccc1O[C@H]1CCCC[C@H]1F` (racemic) [Example 292, rac-2-(((1S,2R)-2-fluorocyclohexyl)oxy)-5-(4-((4-(piperidin-4-yl)phenyl)amino)-1,3,5-triazin-2-yl)benzonitrile], the IC50 on IKKε amounted to 2 nM; at hJAK2, 415 nM.

Source of the values: patent US10040781B2, “Tank-binding kinase inhibitor compounds” (Gilead Sciences, Inc., priority 2014, dated 2018).
